According to PubChem BioAssay AID902 (National Center for Advancing Translational Sciences (NCATS), 2007):
The list shows a part of the results, in another mix than the full data. Records with an inconclusive call do not appear. The source made the active and inactive calls. Calls follow the shape of the dose curve; as a rule, active = well fitted cell-killing curve with a large enough effect; inconclusive = small, poorly fitted or top-dose-only effect; inactive = no such curve, though single readings can be large or run the other way.
% is scaled to controls: 0 for no effect and ±100 for the full control effect.

Assay: qHTS Screen for Compounds that Selectively Target Cancer Cells with p53 Mutations: Cytotoxicity of p53ts Cells at the Nonpermissive Temperature; also: nearly all actives have a fitted effect of over 55% in size
Conditions: H1299-p53A138V viability at 39C, ATP luminescence, 24 h; at 46.1 µM (top of the series) unless noted
In the case of `COc1ccccc1OP(C)(=O)Nc1ccc(C)c(C)c1` (configuration not stated), the activity change, negative = cell killing was inactive: 2.95%.
In the case of `COc1ccc(OP(C)(=O)Nc2ccccc2Br)cc1` (configuration not stated), the activity change, negative = cell killing was inactive: 4.58%.
With `Cc1nc2ccc3ccccc3c2o1.O=[N+]([O-])c1cc([N+](=O)[O-])c(O)c([N+](=O)[O-])c1` the activity change, negative = cell killing was inactive: 4.23%.
In the case of `CP(=O)(Nc1ccccn1)Oc1ccccc1` (configuration not stated), the activity change, negative = cell killing was inactive: 8.94%.
For `N#[O+].[C-]#N.[C-]#N.[C-]#N.[C-]#N.[C-]#N.[Fe+2].[Na+].[Na+]`, the activity change, negative = cell killing was inactive: 9.68%.
For `COc1ccccc1OP(C)(=O)Nc1c(C)n(C)n(-c2ccccc2)c1=O` (configuration not stated), the activity change, negative = cell killing was inactive: 13.5%.
With `OCCSCCO` the activity change, negative = cell killing was inactive: 3.38%.
For `CP(=O)(Oc1ccccc1)N1CCOC1=O` (configuration not stated), the activity change, negative = cell killing was inactive: 1.46%.
In the case of `CN(C)CCOC(=O)C(O)(c1ccccc1)C1CCCCC1` (configuration not stated), the activity change, negative = cell killing was inactive: -4.11%.
In the case of `Cc1c([N+](=O)[O-])cccc1[N+](=O)[O-]`, the activity change, negative = cell killing was inactive: 5.87%.
In the case of `Cc1ccc([N+](=O)[O-])c([N+](=O)[O-])c1`, the activity change, negative = cell killing was inactive: -0.597%.
For `CCOP(C)(=S)SCC(=O)NC(C)(CC)C(=O)O` (configuration not stated), the activity change, negative = cell killing was inactive: 1.17%.
In the case of `CCOP(=O)(CC)OCC`, the activity change, negative = cell killing was inactive: 2.19%.
With `CP(=O)(Nc1ccc2c(c1)OCCO2)Oc1ccccc1` (configuration not stated) the activity change, negative = cell killing was inactive: 3.89%.
With `Cc1ccccc1NP(C)(=O)Nc1ccccc1C` the activity change, negative = cell killing was inactive: 0.859%.
For `CCN(CCCl)Cc1ccccc1C`, the activity change, negative = cell killing was inactive: 9.53%.
In the case of `NNC(NN)NN.n1nc(-c2nn[nH]n2)n[nH]1`, the activity change, negative = cell killing was inactive: -2.39% [at 9.22 µM].
With `CP(=O)(Nc1ccccc1F)Oc1ccccc1` (configuration not stated) the activity change, negative = cell killing was inactive: 9.72%.
In the case of `CCC(C)(OO)OOC(C)(CC)OO` (configuration not stated), the activity change, negative = cell killing was inactive: -17.9%.
For `Cc1cccc([N+](=O)[O-])c1[N+](=O)[O-]`, the activity change, negative = cell killing was inactive: -3.16%.
In the case of `CCN(CC)CCCOC(=O)C(O)(c1ccccc1)C1CCCCC1` (configuration not stated), the activity change, negative = cell killing was inactive: -0.973%.
In the case of `Cc1ccc([N+](=O)[O-])cc1[N+](=O)[O-]`, the activity change, negative = cell killing was inactive: -4.66%.
For `Cc1ccc(C)c(NP(C)(=O)Oc2ccccc2)c1` (configuration not stated), the activity change, negative = cell killing was inactive: 3.86%.
In the case of `Cc1nc2ccc3ccccc3c2s1.O=[N+]([O-])c1cc([N+](=O)[O-])c(O)c([N+](=O)[O-])c1`, the activity change, negative = cell killing was inactive: -3.49%.
In the case of `N1=C(c2nnc(-c3nn[nH]n3)nn2)NNN1`, the activity change, negative = cell killing was inactive: 1.84% [at 9.22 µM].
For `CP(=S)(Nn1cnnc1)Oc1ccccc1` (configuration not stated), the activity change, negative = cell killing was inactive: 1.11%.
For `Cc1cccc(C)c1OP(C)(=O)Nc1ccc(SC(F)(F)F)cc1` (configuration not stated), the activity change, negative = cell killing was inactive: -26.2%.
In the case of `CP(=O)(NC(=O)Nc1ccccc1)Oc1ccccc1` (configuration not stated), the activity change, negative = cell killing was inactive: 4.39%.
In the case of `CCOC(=O)c1ccc(NP(C)(=O)Oc2ccc(OC)cc2)cc1` (configuration not stated), the activity change, negative = cell killing was inactive: -2.08%.
For `CCOP(C)(=S)SCC(=O)NC(C)C(=O)O` (configuration not stated), the activity change, negative = cell killing was inactive: -4.15%.
In the case of `COc1ccccc1OP(C)(=O)Nc1ccc(C)cc1` (configuration not stated), the activity change, negative = cell killing was inactive: -0.651%.
For `Cc1ccc(NP(C)(=O)Oc2ccccc2)c(C)c1` (configuration not stated), the activity change, negative = cell killing was inactive: 2.04%.
